Reference: paper PMC6235670, “An mTOR Signaling Modulator Suppressed Heterotopic Ossification of Fibrodysplasia Ossificans Progressiva” (Stem Cell Reports, 2018)

System: FOP-iMSCs
Test: 2D chondrogenic induction of FOP-iMSCs with activin A (GAG, Alcian blue)
Type: cell-based, human
Conditions: 7 days, 1 µg/mL

For “trastuzumab: ERBB2-selective neutralizing antibody”, the “effect on GAG in the chondrogenesis of FOP-iMSCs (ERBB2 neutralizing antibodies)” value was “no effect”.
